## Antibody variant affinities, Ab-14 light chain, assay B

Source: Li et al. 2023 (doi:10.1038/s41467-023-39022-2), MIT Lincoln Laboratory and A-Alpha Bio; data file from the FLAb repository.

Antigen: PDVDLGDISGINAS, a 14-residue peptide of the SARS-CoV-2 spike HR2 region.

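The starting antibody came from a phage panning campaign against this peptide. Designed CDR sequences, proposed from the first random library and measured here. Group labels follow the data file (Ctrl: baseline library sampled from a position-specific scoring matrix, with some repeated check sequences; GP: Gaussian process model; HC: hill climbing; Gen: genetic algorithm; Gibbs: Gibbs sampling; a sequence that several methods proposed may carry one label only). The scFvs were displayed on barcoded MATa yeast, the peptide on MATalpha yeast. The frequency of each diploid, read from paired DNA barcodes, reflects how well the two displayed proteins bind. The ratio of observed to expected reads was calibrated, replicate by replicate, on BCL2-family standards whose Kd was known from biolayer interferometry. There are six technical replicates.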

Parent: Ab-14, a human scFv built as VH, three GGGGS repeats, VL. Only the CDRs of the light chain vary.
VH: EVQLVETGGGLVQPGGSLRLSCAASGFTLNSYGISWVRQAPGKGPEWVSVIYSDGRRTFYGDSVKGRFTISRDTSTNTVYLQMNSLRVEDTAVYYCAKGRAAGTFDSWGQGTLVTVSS
VL: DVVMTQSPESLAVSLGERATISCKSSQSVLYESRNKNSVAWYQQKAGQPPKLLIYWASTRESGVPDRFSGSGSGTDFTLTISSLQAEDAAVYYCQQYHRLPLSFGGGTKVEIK

Each variant is given by its three light chain CDRs, as the data file delimits them; those of the parent are KSSQSVLYESRNKNSVA, WASTRES, QQYHRLPLS. This list holds designs with at most six substitutions. Kd is apparent (estimated from mating counts) and averaged on the log scale over replicates with a signal. Smaller is tighter. Where no diploid with the target was found in any replicate, the entry reads "nd": below detection, most likely a poor binder, though not proof of it. The range of this assay differs from that of the first round, and the authors advise against merging the two. The authors averaged sequences with at least three values out of six and counted those with two or fewer as poor binders. Nonspecific signal, from three strains lacking the peptide, appeared in 4% of pairings of all light chain designs, centred on 430 nM (5% of these signals below 38 nM); values are not corrected for it. For each scFv, signals with the empty controls are counted beside the result.

* KLSQSVLYESHNKNSVA, NASTRMS, QQYHRLPLS [GP_HC] = 600 pM (6 of 6 replicates; controls 4 of 18)
* KSSISYLYESRNTNSVA, EASTREE, QQYHRLPLS [GP_HC] = 3.7 nM (6 of 6 replicates; controls 0 of 18)
* KSEQSVLYESRNKNSVA, SASTRES, QQYHRLHLS [Ctrl] = 24 nM (4 of 6 replicates; controls 0 of 18)
* KLQQSVLYESRNKNSVA, QASTRMS, QQYHRLPLS [GP_Gen] = 1.1 nM (6 of 6 replicates; controls 1 of 18)
* KFSQSVLYESRTKNSVA, EASTRES, QQYHRLPLS [GP_HC] = 800 pM (6 of 6 replicates; controls 3 of 18)
* KVSQSVLYESRNKNAVA, DASTRES, QQYHRLPLS [GP_Gen] = 170 pM (6 of 6 replicates; controls 0 of 18)
* KSSQSTLYESRNWNSVA, KAVTRES, QQYHRLPLS [Ctrl] = 13 nM (6 of 6 replicates; controls 2 of 18)
* KLSQSVLYEERNKNSVA, NASTRLS, QQYHRLPLS [GP_Gen] = 500 pM (6 of 6 replicates; controls 2 of 18)
* KMSQSVLMESRNKNSVA, DASLRES, QQYHRLPLS [GP_HC] = 630 pM (6 of 6 replicates; controls 2 of 18)
* KVSQSVLYESRMKNSVA, DASTRCS, QQYHRLPLK [GP_HC] = 1.4 nM (6 of 6 replicates; controls 0 of 18)
* KSSFSVLVESKNKNSVA, GASTRES, QQYHRLPLS [Ctrl] = 3.2 nM (6 of 6 replicates; controls 0 of 18)
* KSSQSVLHESRNKNSVA, WASTRES, QSYHRLPLS [Ctrl] = 89 nM (1 of 6 replicates; controls 0 of 18)
* KSSSSVLYESRNKNSVA, EASIRES, QQYHRLPLS [Ctrl] = 8.7 nM (6 of 6 replicates; controls 1 of 18)
* KLSQSELYESRQKNSVA, NASTRLS, QQYHRLPLS [GP_Gen] = 1.5 nM (6 of 6 replicates; controls 0 of 18)
* KVSQSHLYESRMKNSVA, DASTRCS, QQYHRLPLE [GP_HC] = 700 pM (6 of 6 replicates; controls 0 of 18)
* KLRQSTLYESRNKNSVA, TASTRES, QQYHRLPLS [GP_HC] = 23 nM (4 of 6 replicates; controls 0 of 18)
* KSQQSELYESRNKNSVA, NASTRMS, QQYHRLPLS [GP_Gen] = 850 pM (6 of 6 replicates; controls 1 of 18)
* KLSQSDLYESRNKNNVA, EASTRES, QQYHRLPLS [GP_Gen] = 1.1 nM (6 of 6 replicates; controls 1 of 18)
* KLHQSWLYESRNKNSVA, NASQRES, QQYHRLPLS [GP_Gen] = 1.4 nM (6 of 6 replicates; controls 0 of 18)
* KLSQSVLYESRNKNSVA, HASTRED, QQYHQLPLS [GP_HC] = 1.0 nM (6 of 6 replicates; controls 0 of 18)
* KLRFSVMGESRNKNSVA, SASTRES, QQYHRLPLS [GP_Gibbs] = 3.4 nM (6 of 6 replicates; controls 1 of 18)
* KLSQSYLYEERNKNSVA, NASQRES, QQYHRLPLS [GP_Gen] = 420 pM (6 of 6 replicates; controls 2 of 18)
* KSLQLWLYESRNKNSVA, HASTREQ, QQYHRLPLS [GP_HC] = 170 nM (5 of 6 replicates; controls 0 of 18)
* KVSQSVLYESRAKNSVA, EASTRES, QQYHRLPLS [GP_Gen] = 580 pM (6 of 6 replicates; controls 1 of 18)
* KSSQSVFKQSRNKNSVA, PASTRES, QQYHRVPLS [Ctrl] = nd (0 of 6 replicates; controls 0 of 18)
* KSSQSVLYESRNKNSVA, WASTRES, QQPHRLPLS [Ctrl] = nd (0 of 6 replicates; controls 1 of 18)
* KSSVSYLGESRNKNSVA, EASTRES, QQYHRLPLS [GP_HC] = 1.1 nM (6 of 6 replicates; controls 0 of 18)
* KVSMSVLYESRNKNSVA, NASTRES, QQYHRLPLI [GP_Gibbs] = 1.6 nM (6 of 6 replicates; controls 1 of 18)
* KLSQSVLMESRNKNSVA, DASTRES, QQYHRLPLS [GP_Gen] = 560 pM (6 of 6 replicates; controls 0 of 18)
* KLQQSVLYESRNKNSVA, HASTRED, QQYHRLPLS [GP_Gen] = 590 pM (6 of 6 replicates; controls 2 of 18)
* KLSQSYLYESRNKNSVA, NASYRES, QQYHRLPLS [GP_Gen] = 1.2 nM (6 of 6 replicates; controls 1 of 18)
* KLSQSNLMEDENKNSVA, AASTRES, QQYHRLPLS [Ctrl] = 1.9 nM (6 of 6 replicates; controls 0 of 18)
* KSSISYLYESLNKNSVA, AASTRES, QQYHRLPLS [GP_HC] = 1.1 nM (6 of 6 replicates; controls 1 of 18)
* SFSQSVLYESRDKNSVA, NASTRES, QQYHRLPLS [GP_HC] = 1.1 nM (6 of 6 replicates; controls 1 of 18)
* KSSLSFLYESRNKNSVA, GASTRES, QQYHRLPLS [GP_HC] = 380 pM (6 of 6 replicates; controls 2 of 18)
* KSSQSVLYEWRNKNSVA, QSSTRET, QQYHRLPTS [Ctrl] = nd (0 of 6 replicates; controls 1 of 18)
* KLSQLWLYESRNKNSVA, NASTRLS, QQYHRLPLS [GP_Gen] = 2.8 nM (6 of 6 replicates; controls 2 of 18)
* KSSQSVLMEYENFNSVA, WADTRES, QEYHRLPLS [Ctrl] = nd (0 of 6 replicates; controls 0 of 18)
* KSSQSDLYESRNKNSVA, WASTRES, QQYLRLFLS [Ctrl] = nd (0 of 6 replicates; controls 0 of 18)
* KSSISGLEESRNKNSVA, EASTRES, QQYHRLPLS [GP_HC] = 1.1 nM (6 of 6 replicates; controls 0 of 18)
* KLPQSTLYESRNKNSVA, DASQRES, QQYHRLPLS [GP_Gen] = 530 pM (6 of 6 replicates; controls 0 of 18)
* KIFQSVQYESRNKNSVA, NASDRMS, QQYHRLPLS [GP_Gibbs] = 720 pM (6 of 6 replicates; controls 0 of 18)
* KSSQSVLEESRNKNSVA, AASERES, QQYHRLPLS [Ctrl] = 3.8 nM (6 of 6 replicates; controls 3 of 18)
* KSSVSQLYTSRNKNSVA, WADTRES, QQDHRLPFS [Ctrl] = 140 nM (4 of 6 replicates; controls 0 of 18)